Like-named read-outs stand apart in the source and are kept apart here.
Tests used:
Experiment in all cases: biochemical
B*0701 = B*0701 (Homo sapiens, UniProt P01889)
DR4w4 (DRB1*0401) = DR4w4 (DRB1*0401) (Homo sapiens, UniProt P01903+P01911, A100K/A169T/F76Y/I96L/K127E/L162R/M171V/N62H/P40V/Q125Y/R42H/S133A/S149N/S66Y/V115G/V209L/W38E); assay type: binding
A*2902 = A*2902 (Homo sapiens, UniProt P04439, A270S/D101N/D185E/E176V/E277Q/E87Q/F33T/G231S/H175R/I121M/I218V/I322F/K168Q/L300P/L318F/M331R/P208A/P217A/Q86L/T323A/T345S/V100A/V358M); assay type: binding
A*3002 = A*3002 (Homo sapiens, UniProt P04439, D101N/D140H/D185E/E176R/F33S/G80R/H175R/K168Q/Q94H/R138E/R41S/V100E); assay type: binding
DR7 (DRB1*0701) = DR7 (DRB1*0701) (Homo sapiens, UniProt P01903+P01911, A100R/A102G/A103Q/D57E/D86V/E43K/F76Y/K127E/L162R/M171V/P40G/Q125H/Q99D/R33Q/R42Y/R54Q/S133A/S66F/T210M/V115G/Y107V/Y59L/Y89S)
DRB1*0405 = DRB1*0405 (Homo sapiens, UniProt P01903+P01911, A100R/A169T/D86S/F76Y/I96L/K127E/L162R/M171V/N62H/P40V/Q125Y/R42H/S133A/S149N/S66Y/V115G/V209L/W38E); assay type: binding
A*6802 = A*6802 (Homo sapiens, UniProt P04439, A269V/D140Y/D185E/E176V/E277Q/E87N/F33Y/G231S/I121R/I166T/I218V/L180W/L300P/L318F/N151K/P208A/P217A/Q86R/R138H/R169H/S129P/T345S/V36M); assay type: binding
HLA-A1 (A*0101) = HLA-A1 (A*0101) (Homo sapiens, UniProt P04439, A114D/A174V/A182V/D101N/D185E/E176A/E190D/L180R/Q94H/R68K/S129P/T187R/V100A/V91M/W191G)
DRB1*1302 = DRB1*1302 (Homo sapiens, UniProt P01903+P01911, A100E/A169T/K41T/L162R/M171V/P40S/Q125H/Q178H/Q39Y/Q99D/R42S/S66N/T262R/V115G/W38E/Y61H)
[1] = B*0701 (nM), Binding of peptides to B7-like supermotif alleles, Table 36

CC[C@H](C)[C@H](NC(=O)[C@@H](NC(=O)[C@H](Cc1ccc(O)cc1)NC(=O)[C@H](CC(C)C)NC(=O)[C@H](Cc1c[nH]cn1)NC(=O)[C@H](CO)NC(=O)[C@@H](NC(=O)[C@@H]1CCCN1C(=O)[C@@H](N)C(C)C)[C@@H](C)CC)[C@@H](C)CC)C(=O)O
IC50 (B*0701): 108 nM

787.38 (AADFGIFIDFIIA; non-natural residue (43)) [Peptide 787.38]
IC50 (DR4w4 (DRB1*0401); read-out: DRB1*0401): 0.235 µM

CC(C)C[C@H](NC(=O)CNC(=O)[C@H](CC(C)C)NC(=O)[C@H](CCCNC(=N)N)NC(=O)CNC(=O)[C@H](CCCNC(=N)N)NC(=O)[C@H](CO)NC(=O)[C@@H]1CCCN1C(=O)[C@@H](N)CC(=O)O)C(=O)O [15.038]
IC50 (B*0701; [1]): 45 nM

CC[C@H](C)[C@H](NC(=O)[C@H](C)NC(=O)[C@@H]1CCCN1C(=O)[C@H](CC(N)=O)NC(=O)CNC(=O)[C@@H]1CCCN1C(=O)[C@@H](N)CC(C)C)C(=O)N[C@@H](C)C(=O)N[C@@H](CO)C(=O)N[C@@H](CC(C)C)C(=O)O [15.236]
IC50 (B*0701; B*0701 (nM), binding of B7-like supermotif 10-mer peptides to purified HLA-B*0701): 752 nM

CC(C)C[C@H](NC(=O)[C@H](CC(C)C)NC(=O)[C@H](CC(C)C)NC(=O)[C@@H]1CCCN1C(=O)[C@H](C)N)C(=O)N[C@@H](C)C(=O)N[C@@H](CCCNC(=N)N)C(=O)N[C@@H](C)C(=O)N[C@@H](C)C(=O)O [16.032]
IC50 (B*0701; [1]): 257 nM

CC[C@H](C)[C@H](NC(=O)[C@@H]1CCCN1C(=O)[C@@H](N)CC(C)C)C(=O)N[C@@H](Cc1c[nH]cn1)C(=O)N[C@H](C(=O)N[C@@H](C)C(=O)N[C@@H](CCC(=O)O)C(=O)N[C@@H](CC(C)C)C(=O)N[C@@H](CC(C)C)C(=O)N[C@@H](C)C(=O)O)[C@@H](C)O [16.181]
IC50 (B*0701; [1]): 3090 nM

CC[C@H](C)[C@H](NC(=O)[C@H](CCC(N)=O)NC(=O)[C@@H](NC(=O)[C@H](CO)NC(=O)[C@@H](N)CC(=O)O)C(C)C)C(=O)N[C@@H](CC(C)C)C(=O)N[C@H](C(=O)NCC(=O)N[C@@H](Cc1ccc(O)cc1)C(=O)O)C(C)C [Peptide 86.0147]
IC50 (A*2902): 13.6 µM
IC50 (A*3002): 0.138 µM

CC[C@H](C)[C@H](N)C(=O)N[C@@H](CCCCN)C(=O)N[C@@H](Cc1ccccc1)C(=O)N[C@@H](Cc1ccccc1)C(=O)N[C@@H](CCC(N)=O)C(=O)NCC(=O)N[C@@H](CO)C(=O)N[C@H](C(=O)N[C@H](C(=O)N[C@@H](CO)C(=O)N[C@@H](Cc1ccccc1)C(=O)N[C@H](C(=O)N[C@@H](CC(N)=O)C(=O)N[C@@H](CO)C(=O)N[C@@H](CCC(N)=O)C(=O)O)C(C)C)[C@@H](C)CC)C(C)C [Peptide 89.0136]
IC50 (DR4w4 (DRB1*0401)): 9.68 µM

CSCC[C@H](NC(=O)[C@H](Cc1ccc(O)cc1)NC(=O)[C@H](Cc1ccc(O)cc1)NC(=O)[C@@H](NC(=O)[C@@H](N)CO)C(C)C)C(=O)N[C@H](C(=O)N[C@@H](CC(=O)O)C(=O)N[C@@H](C)C(=O)NCC(=O)N[C@H](C(=O)N[C@@H](Cc1c[nH]c2ccccc12)C(=O)N[C@@H](CC(=O)O)C(=O)N[C@@H](CCCCN)C(=O)N[C@H](C(=O)N[C@@H](C)C(=O)O)[C@@H](C)O)[C@@H](C)O)[C@@H](C)O [Peptide 90.0182]
IC50 (DR7 (DRB1*0701)): 1.17 µM
IC50 (DRB1*0405): 4.06 µM

CC[C@H](C)[C@H](NC(=O)[C@H](CCCCN)NC(=O)[C@H](CCC(=O)O)NC(=O)CNC(=O)[C@H](CC(=O)O)NC(=O)[C@H](CS)NC(=O)[C@H](Cc1c[nH]c2ccccc12)NC(=O)[C@H](Cc1ccc(O)cc1)NC(=O)[C@H](Cc1ccc(O)cc1)NC(=O)[C@H](CC(C)C)NC(=O)CN)C(=O)N[C@@H](Cc1ccc(O)cc1)C(=O)N[C@@H](Cc1ccccc1)C(=O)N[C@H](C(=O)N[C@@H](CCCCN)C(=O)O)C(C)C [Peptide 90.0226]
IC50 (DRB1*0405): 4.06 µM
IC50 (DR4w4 (DRB1*0401)): 1.47 µM

CC[C@H](C)[C@H](NC(=O)[C@H](CCC(=O)O)NC(=O)[C@@H](N)CO)C(=O)N[C@@H](Cc1ccc(O)cc1)C(=O)N[C@H](C(=O)N[C@H](C(=O)N[C@@H](CCC(=O)O)C(=O)N[C@@H](CCC(=O)O)C(=O)N[C@H](C(=O)N[C@H](C(=O)N[C@@H](CS)C(=O)N[C@H](C(=O)N[C@@H](CC(C)C)C(=O)N[C@H](C(=O)N[C@@H](C)C(=O)O)C(C)C)[C@@H](C)O)[C@@H](C)O)[C@@H](C)O)[C@@H](C)CC)[C@@H](C)CC [Peptide 90.0250]
IC50 (DR4w4 (DRB1*0401)): 0.166 µM

CC(C)C[C@H](NC(=O)[C@H](CO)NC(=O)[C@H](CC(C)C)NC(=O)[C@@H](N)CO)C(=O)NCC(=O)N[C@@H](Cc1ccccc1)C(=O)N[C@@H](CC(C)C)C(=O)N[C@@H](Cc1ccccc1)C(=O)N[C@H](C(=O)O)C(C)C [Peptide 1419.50]
IC50 (A*6802): > 20 µM

CC(C)C[C@H](NC(=O)CN)C(=O)N[C@@H](Cc1c[nH]cn1)C(=O)NCC(=O)N[C@@H](CCC(N)=O)C(=O)N[C@@H](CC(=O)O)C(=O)N[C@@H](CC(C)C)C(=O)N[C@@H](Cc1ccccc1)C(=O)NCC(=O)N[C@H](C(=O)O)C(C)C [Peptide 1419.62]
IC50 (A*6802): > 20 µM

CC(C)C[C@H](NC(=O)[C@H](CCC(=O)O)NC(=O)[C@H](Cc1c[nH]cn1)NC(=O)[C@H](CC(C)C)NC(=O)[C@@H](NC(=O)[C@H](CCCNC(=N)N)NC(=O)[C@@H]1CCCN1C(=O)[C@H](CCCNC(=N)N)NC(=O)[C@@H](N)[C@@H](C)O)[C@@H](C)O)C(=O)N[C@@H](CS)C(=O)N[C@@H](CCC(=O)O)C(=O)N[C@H](C(=O)N[C@@H](CC(C)C)C(=O)N[C@@H](CCC(=O)O)C(=O)N[C@@H](CCC(=O)O)C(=O)O)C(C)C [Peptide 1543.42]
IC50 (DR4w4 (DRB1*0401)): 13.1 µM

CC[C@H](C)[C@H](NC(=O)[C@@H](NC(=O)[C@@H]1CCCN1)[C@@H](C)O)C(=O)N[C@@H](CO)C(=O)N1CCC[C@H]1C(=O)N[C@@H](CO)C(=O)N[C@@H](Cc1ccc(O)cc1)C(=O)N[C@H](C(=O)N[C@@H](Cc1ccc(O)cc1)C(=O)N[C@@H](Cc1ccc(O)cc1)C(=O)O)[C@@H](C)O [Peptide 1553.03]
IC50 (HLA-A1 (A*0101)): 0.415 µM
IC50 (A*3002): 1.58 µM

CC[C@H](C)[C@H](NC(=O)CNC(=O)[C@H](CCC(=O)O)NC(=O)[C@H](Cc1c[nH]cn1)NC(=O)[C@@H](N)C(C)C)C(=O)N[C@@H](CCCNC(=N)N)C(=O)N[C@H](C(=O)N[C@@H](Cc1ccc(O)cc1)C(=O)N[C@@H](Cc1ccccc1)C(=O)N[C@H](C(=O)N[C@@H](CCC(N)=O)C(=O)N[C@@H](Cc1ccccc1)C(=O)N[C@@H](CCCCN)C(=O)N[C@@H](CC(=O)O)C(=O)N[C@@H](CC(=O)O)C(=O)O)C(C)C)[C@@H](C)O [Peptide 1601.05]
IC50 (DRB1*1302): 16.9 µM
IC50 (DR4w4 (DRB1*0401)): 12.1 µM

C[C@H](N)C(=O)N[C@@H](C)C(=O)N[C@@H](CO)C(=O)N[C@@H](CC(N)=O)C(=O)N1CCC[C@H]1C(=O)N1CCC[C@H]1C(=O)N[C@@H](C)C(=O)N[C@@H](CCC(N)=O)C(=O)N[C@@H](Cc1ccc(O)cc1)C(=O)O [Peptide 1610.04]
IC50 (HLA-A1 (A*0101)): > 20 µM
IC50 (A*2902): > 20 µM
IC50 (A*3002): 0.21 µM

CC(C)C[C@H](N)C(=O)N[C@H](C(=O)N[C@@H](Cc1ccccc1)C(=O)N[C@@H](Cc1c[nH]c2ccccc12)C(=O)N[C@@H](CC(N)=O)C(=O)N1CCC[C@H]1C(=O)N1CCC[C@H]1C(=O)N[C@H](C(=O)N[C@H](C(=O)O)C(C)C)[C@@H](C)O)[C@@H](C)O [Peptide 9013.0006]
IC50 (A*6802): 0.014 µM

CC(C)C[C@H](NC(=O)[C@@H](NC(=O)[C@H](CCC(=O)O)NC(=O)[C@H](CCCCN)NC(=O)CNC(=O)[C@H](CCC(=O)O)NC(=O)[C@H](C)NC(=O)[C@@H](NC(=O)[C@@H](N)CC(N)=O)C(C)C)C(C)C)C(=O)N[C@H](C(=O)O)C(C)C [Peptide 9013.0133]
IC50 (A*6802): 0.352 µM

CC[C@H](C)[C@H](NC(=O)[C@@H](NC(=O)[C@@H](NC(=O)[C@@H](NC(=O)[C@H](CC(C)C)NC(=O)[C@@H](N)[C@@H](C)O)C(C)C)[C@@H](C)O)[C@@H](C)O)C(=O)N[C@H](C(=O)N[C@H](C(=O)N[C@@H](Cc1ccc(O)cc1)C(=O)N[C@@H](C)C(=O)O)C(C)C)[C@@H](C)O [Peptide 9013.0193]
IC50 (A*6802): 0.194 µM
